Experimental findings from patent US20240246937A1 (MERCK SHARP & DOHME LLC, priority 2021, published 2024) are described below.

By UniProt entry, the sequences of proteins in these tests, tags left out. Residues count along the entry.
UniProt Q96RQ9, 22-567 limits assumed: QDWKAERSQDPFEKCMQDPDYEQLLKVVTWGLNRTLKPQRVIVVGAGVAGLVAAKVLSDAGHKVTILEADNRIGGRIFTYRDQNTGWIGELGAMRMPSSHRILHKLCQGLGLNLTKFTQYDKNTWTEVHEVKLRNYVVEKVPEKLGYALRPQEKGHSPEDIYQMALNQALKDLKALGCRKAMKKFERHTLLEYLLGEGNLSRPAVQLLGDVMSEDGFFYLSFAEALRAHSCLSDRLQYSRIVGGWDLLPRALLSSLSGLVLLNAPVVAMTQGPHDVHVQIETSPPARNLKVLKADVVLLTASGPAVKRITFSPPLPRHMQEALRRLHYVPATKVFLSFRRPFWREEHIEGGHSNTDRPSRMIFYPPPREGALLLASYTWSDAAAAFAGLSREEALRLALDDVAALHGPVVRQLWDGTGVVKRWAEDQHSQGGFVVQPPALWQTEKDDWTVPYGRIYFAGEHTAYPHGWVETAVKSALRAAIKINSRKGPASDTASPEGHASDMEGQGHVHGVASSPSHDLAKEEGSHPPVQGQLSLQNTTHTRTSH

The assay deals with recombinant IL4I1 (Homo sapiens (Human), UniProt Q96RQ9). Description: IL4I1 Enzymatic Assay (Amplex Red/HRP coupled fluorescence detection of H2O2). The following applies: read-out: EC50 (nM) (240 min), recombinant IL4I1, four-hour pre-incubation with compound. The procedure:
Interleukin 4 inducible protein 1 (IL4I1) is an L-amino oxidase that catalyzes the oxidation of aromatic residues (Phe, Trp and Tyr): L-amino acid+H2O+O2→2-oxo acid+NH3+H2O2. Equal molar of H2O2 and the corresponding alpha-ketoacid are produced when IL4I1 and substrate are added. In this assay, the hydrogen peroxide generated by IL4I1 is then detected through a coupled reaction with Amplex® Red (10-acetyl-3,7-dihydroxyphenoxazine) and horseradish peroxidase (HRP) to produce resorufin product that could be detected in the form of fluorescence signals. The assessment of the inhibitory effect of small molecules (EC50) on IL4I1 is measured by the effectiveness of the compounds to inhibit the production of H2O2.
Using this assay, the potency (EC50) of each compound was determined from a ten-point (1:3 serial dilution) titration curve using the following outlined procedure. […] Reactions were allowed to proceed for 120 minutes followed by fluorescence readout on a Spectramax with the following set parameters: 544 nm excitation/590 nm emission, 570 nm cutoff (EnVision is an alternative reader). […] EC50 values were calculated using a non-linear regression, four-parameters sigmoidal dose-response model and are shown in Potency Table 1.

Take `O=C1C(=O)N(C2CCCC2)CCN1Cc1ccc(N2CCCC2)nc1`: the half-maximal effective concentration (EC50) amounted to 23 nM.

For orientation: EC50 means the concentration that produces a half-maximal response.
